Results taken from PMC12836348, “Alanine Mutagenesis Identifies Specific Amino Acids of Nemertide Alpha‑1 Activity and Its Binding to Target Receptors” (Journal of Natural Products, 2025).

Chains of the proteins cited; added tags and fusions are not shown.
UniProt P08104, whole entry: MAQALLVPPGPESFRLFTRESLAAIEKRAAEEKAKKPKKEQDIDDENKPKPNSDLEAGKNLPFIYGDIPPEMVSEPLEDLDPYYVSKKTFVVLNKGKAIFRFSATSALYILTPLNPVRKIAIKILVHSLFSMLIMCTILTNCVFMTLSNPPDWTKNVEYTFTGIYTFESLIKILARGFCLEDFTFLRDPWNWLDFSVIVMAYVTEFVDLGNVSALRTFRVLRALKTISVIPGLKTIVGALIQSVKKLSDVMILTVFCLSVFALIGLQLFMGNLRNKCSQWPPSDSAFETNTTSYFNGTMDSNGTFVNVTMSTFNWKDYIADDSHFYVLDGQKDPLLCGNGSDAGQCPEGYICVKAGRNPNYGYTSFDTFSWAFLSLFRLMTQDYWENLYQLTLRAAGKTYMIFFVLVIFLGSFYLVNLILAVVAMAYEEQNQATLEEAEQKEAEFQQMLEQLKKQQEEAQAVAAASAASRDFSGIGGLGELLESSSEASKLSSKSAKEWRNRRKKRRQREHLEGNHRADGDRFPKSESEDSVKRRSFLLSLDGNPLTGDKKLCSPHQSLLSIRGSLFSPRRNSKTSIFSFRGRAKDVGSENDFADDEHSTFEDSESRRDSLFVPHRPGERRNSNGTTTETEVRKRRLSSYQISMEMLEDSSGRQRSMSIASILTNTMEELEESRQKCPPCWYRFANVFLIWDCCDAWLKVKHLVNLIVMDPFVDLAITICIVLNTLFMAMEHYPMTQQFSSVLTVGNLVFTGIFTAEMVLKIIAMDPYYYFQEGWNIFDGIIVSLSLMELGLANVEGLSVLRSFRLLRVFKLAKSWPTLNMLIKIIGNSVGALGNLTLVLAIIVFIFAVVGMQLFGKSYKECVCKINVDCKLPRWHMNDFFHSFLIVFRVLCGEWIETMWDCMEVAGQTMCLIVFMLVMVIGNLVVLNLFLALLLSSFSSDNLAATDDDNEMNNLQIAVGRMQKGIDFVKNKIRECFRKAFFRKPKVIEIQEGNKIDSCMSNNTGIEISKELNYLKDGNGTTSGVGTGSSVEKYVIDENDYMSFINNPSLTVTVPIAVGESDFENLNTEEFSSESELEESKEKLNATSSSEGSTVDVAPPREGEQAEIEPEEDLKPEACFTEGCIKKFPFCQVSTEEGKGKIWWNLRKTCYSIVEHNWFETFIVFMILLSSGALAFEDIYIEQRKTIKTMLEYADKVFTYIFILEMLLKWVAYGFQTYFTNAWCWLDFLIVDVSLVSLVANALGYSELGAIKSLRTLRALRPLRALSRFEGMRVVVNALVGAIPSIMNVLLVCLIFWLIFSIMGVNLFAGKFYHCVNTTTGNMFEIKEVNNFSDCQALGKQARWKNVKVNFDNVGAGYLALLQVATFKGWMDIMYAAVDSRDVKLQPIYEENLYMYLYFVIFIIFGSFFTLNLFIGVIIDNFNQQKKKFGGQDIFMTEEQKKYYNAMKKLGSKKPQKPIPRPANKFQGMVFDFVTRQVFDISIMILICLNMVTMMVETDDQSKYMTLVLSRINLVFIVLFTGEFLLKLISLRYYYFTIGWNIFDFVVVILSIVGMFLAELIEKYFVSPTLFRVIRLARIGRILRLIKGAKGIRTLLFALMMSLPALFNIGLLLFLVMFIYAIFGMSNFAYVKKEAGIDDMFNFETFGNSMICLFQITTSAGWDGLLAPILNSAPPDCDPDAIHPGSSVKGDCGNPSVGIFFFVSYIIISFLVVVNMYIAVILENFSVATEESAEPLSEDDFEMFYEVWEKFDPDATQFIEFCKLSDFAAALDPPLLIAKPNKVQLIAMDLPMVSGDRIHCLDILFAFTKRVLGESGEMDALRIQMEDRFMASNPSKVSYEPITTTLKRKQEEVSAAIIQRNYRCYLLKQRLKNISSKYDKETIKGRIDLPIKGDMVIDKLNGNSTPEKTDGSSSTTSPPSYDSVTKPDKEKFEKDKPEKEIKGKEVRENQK

Key:
Type in all cases: cell-based
TRPA1 = assay: Ion channel panel, TRPA1; design: key: “+” means tested and produced effect; “–“ means tested but no effect; details: S12A at 5 μM; −90 mV, 50 μM mustard oil, n ≥ 3
TRPV1 = assay: Ion channel panel, TRPV1; design: key: “+” means tested and produced effect; “–“ means tested but no effect; details: S12A at 5 μM; −90 mV, 1 μM capsaicin, 10 μM capsazepine, n ≥ 3
Description: (§1) To assess the concentration–response relationships, data were fitted with the Hill equation: y = 100/[1 + (EC50/[toxin])^ h ], where y is the amplitude of the toxin-induced effect (y = I 30 ms/I peak where I 30 ms is the current value at 30 ms in the presence of toxin and I peak is the peak current amplitude in control conditions), EC50 is the toxin concentration at half-maximal efficacy, [toxin] is the toxin concentration, and h is the Hill coefficient. Potassium and calcium currents were evoked by a 500 ms depolarization to the voltage corresponding to the maximal activation of the channels in control conditions from a holding potential of −90 mV. Elicited currents were sampled at 1 kHz and filtered at 0.5 kHz. […] ASIC1a currents were measured in ND96 solutions at a pH of 7.4 and 4.5, at a holding potential of −70 mV during 400 s, and the data were filtered at 20 Hz. EnaC currents were measured by clamping oocytes at a holding potential of −60 mV and perfusing with low- (1 mM) and high- (96 mM) sodium ND96. Opioid currents were measured by clamping the potential to −70 mV and changing the perfusion solution from ND96 to high-potassium (HK) solution composed of 96 mM KCl, 2 mM NaCl, 1 mM MgCl2, 1.8 mM CaCl2, and 5 mM HEPES, with a final pH of 7.5. […] TRPV1 and TRPA1 currents were continuously monitored in a perfusing ND96 solution, following a protocol at −90 mV for 400 s. […]

Kv1.3 = assay: Ion channel panel, Kv1.3; design: key: “+” means tested and produced effect; “–“ means tested but no effect; details: S12A at 5 μM; Xenopus oocytes, n ≥ 3
Description: as §1

rNaV1.3 = molecular target: T1, rNaV1.3 (Rattus norvegicus, UniProt P08104); assay: Two-electrode voltage clamp, Nav1.3 in Xenopus laevis oocytes; details: ex vivo, Hill fit, n ≥ 3, highest tested concentration 50 μM
T1 construct: expressed in transfected cells; host or cells: Xenopus laevis oocytes (cRNA injection)

α4β2 = assay: Ion channel panel, nAChR α4β2; design: key: “+” means tested and produced effect; “–“ means tested but no effect; details: S12A at 5 μM, oocytes at −70 mV, 5 min incubation, n ≥ 3
Description: as §1

α4β4 = assay: Ion channel panel, nAChR α4β4; design: key: “+” means tested and produced effect; “–“ means tested but no effect; details: S12A at 5 μM, oocytes at −70 mV, 5 min incubation, n ≥ 3
Description: as §1

## CC[C@H](C)[C@@H]1NC(=O)[C@@H](NC(=O)CN)CSSC[C@@H]2NC(=O)[C@@H]3CSSC[C@@H](C(=O)N[C@@H](CC(N)=O)C(=O)N4C[C@H](O)C[C@H]4C(=O)N4C[C@H](O)C[C@H]4C(=O)N[C@@H](CC(N)=O)C(=O)N[C@@H](CCC(N)=O)C(=O)O)NC(=O)[C@H](CCCCN)NC(=O)[C@H](Cc4ccccc4)NC(=O)[C@H](CC(N)=O)NC(=O)[C@H](Cc4c[nH]c5ccccc45)NC(=O)CNC(=O)[C@H](CSSC[C@H](NC(=O)[C@H](Cc4ccccc4)NC(=O)[C@H](CO)NC(=O)CNC(=O)[C@H]([C@@H](C)O)NC(=O)[C@H](C)NC1=O)C(=O)N[C@@H]([C@@H](C)O)C(=O)N[C@@H](CC(C)C)C(=O)N[C@@H](C)C(=O)N[C@@H](CCCCN)C(=O)NCC(=O)N3)NC(=O)[C@H](CC(N)=O)NC(=O)[C@H](CCCCN)NC(=O)[C@H]([C@@H](C)O)NC2=O [Peptide S12A]
TRPA1
  effect on TRPA1: –
TRPV1
  effect on TRPV1: –
Kv1.3
  effect on Kv1.3: –
rNaV1.3
  EC50 Nav1.3: no detectable activity
α4β2
  effect on α4β2: –
α4β4
  effect on α4β4: –
